Reference: publication PMC10716778 (The Journal of Biological Chemistry, 2023)

Tests used:
[1] = biological target: KPC-2 (Klebsiella pneumoniae, UniProt Q9F663); assay: Steady-state kinetics of β-lactam hydrolysis by KPC-2; conditions: substrate hydrolysis by KPC-2; 30 °C, 50 mM sodium phosphate pH 7
[2] = tested on: CC1(C)S[C@@H]2[C@H](NC(=O)[C@H](N)c3ccccc3)C(=O)N2[C@H]1C(=O)O; assay: purified protein, by the assay type; conditions: other: substrate hydrolysis by KPC-2, 30 °C, pH 7

`CC(C)(O/N=C(\C(=O)N[C@@H]1C(=O)N2C(C(=O)[O-])=C(C[n+]3ccccc3)CS[C@H]12)c1csc(N)n1)C(=O)O` [Ceftazidime] was tested, and the kcat [1] was greater than 0.8 s⁻¹.

Compound KPC-2 (Klebsiella pneumoniae) has a Km [2] of 210 ± 33 µM, a kcat [2] of 160 ± 10 s⁻¹ and a kcat/Km [2] of 760000 ± 130000 M⁻¹ s⁻¹.
